Experimental data reported in paper PMC8406001.

What was measured:
K35T transthyretin [1] = target: K35T transthyretin (UniProt P02766); assay: SEC; size-exclusion chromatography at 2.0 M Gdm.HCl (pretransition region)
K35T transthyretin [2] = target: K35T transthyretin (UniProt P02766); assay: AUC; sedimentation velocity, 15 uM TTR, after 96 h in 50 mM sodium phosphate (pH 7.4 in the tables, pH 7.0 in the methods), 0.1 M KCl, […] urea; 25 C, 48,000 rpm; tetramer, monomer and higher-order oligomers
K35T transthyretin [3] = target: K35T transthyretin (UniProt P02766); assay: AUC; sedimentation velocity, 5 uM TTR tetramer, after 96 h in 50 mM sodium phosphate (pH 7.4 in the tables, pH 7.0 in the methods), 0.1 M KCl, […] urea; 25 C, 48,000 rpm; tetramer, monomer and higher-order oligomers
K35N transthyretin [4] = target: K35N transthyretin (UniProt P02766); assay: SEC; size-exclusion chromatography at 2.0 M Gdm.HCl (pretransition region)
K35N transthyretin [5] = target: K35N transthyretin (UniProt P02766); assay: AUC; sedimentation velocity, 15 uM TTR, after 96 h in 50 mM sodium phosphate (pH 7.4 in the tables, pH 7.0 in the methods), 0.1 M KCl, […] urea; 25 C, 48,000 rpm; tetramer, monomer and higher-order oligomers
K35N transthyretin [6] = target: K35N transthyretin (UniProt P02766); assay: AUC; sedimentation velocity, 5 uM TTR tetramer, after 96 h in 50 mM sodium phosphate (pH 7.4 in the tables, pH 7.0 in the methods), 0.1 M KCl, […] urea; 25 C, 48,000 rpm; tetramer, monomer and higher-order oligomers

Row | stoichiometry N (K35T transthyretin [1]) | percent higher-order oligomers (K35T transthyretin [2]) | percent monomer (K35T transthyretin [2]) | percent tetramer (K35T transthyretin [2]) | stoichiometry N (K35T transthyretin [2]) | percent higher-order oligomers (K35T transthyretin [3]) | percent monomer (K35T transthyretin [3]) | percent tetramer (K35T transthyretin [3]) | stoichiometry N (K35T transthyretin [3]) | stoichiometry N (K35N transthyretin [4]) | percent higher-order oligomers (K35N transthyretin [5]) | percent monomer (K35N transthyretin [5]) | percent tetramer (K35N transthyretin [5]) | stoichiometry N (K35N transthyretin [5]) | percent higher-order oligomers (K35N transthyretin [6]) | percent monomer (K35N transthyretin [6]) | percent tetramer (K35N transthyretin [6]) | stoichiometry N (K35N transthyretin [6]) | Substance
1 | 4 | 41.8% | 12.2% | 46% | 4 | 36.2% | 20.1% | 43.7% | 4 |  |  |  |  |  |  |  |  |  | K35T transthyretin (from UniProt P02766 21-127) (natural protein)
2 |  |  |  |  |  |  |  |  |  | 4 | 27.1% | 9.2% | 63.7% | 4 | 26.2% | 15.9% | 57.9% | 4 | K35N transthyretin (from UniProt P02766 21-127) (natural protein)
